These are literature values, as cited in US9803220B2, “Production of alkenes from 3-hydroxy-1-carboxylic acids via 3-sulfonyloxy-1-carboxylic acids” (Scientist of Fortune S.A., priority 2012, dated 2017).

This data set deals with Rhodotorula minuta. The following applies: conversion of isovalerate to isobutylene; Fujii T. et al., 1988; cited from earlier work.

For isovalerate, the “turnover number (kcat)” value was 1e-05 s⁻¹.
